Our source for the Ki values is ChEMBL document CHEMBL1153953, “Synthesis and pharmacological evaluation of coumarin derivatives as cannabinoid receptor antagonists and inverse agonists” (Bioorg Med Chem, 2009).

Sequences of proteins named here, by UniProt entry; tags and fusion partners are left off.
UniProt P34972, whole entry: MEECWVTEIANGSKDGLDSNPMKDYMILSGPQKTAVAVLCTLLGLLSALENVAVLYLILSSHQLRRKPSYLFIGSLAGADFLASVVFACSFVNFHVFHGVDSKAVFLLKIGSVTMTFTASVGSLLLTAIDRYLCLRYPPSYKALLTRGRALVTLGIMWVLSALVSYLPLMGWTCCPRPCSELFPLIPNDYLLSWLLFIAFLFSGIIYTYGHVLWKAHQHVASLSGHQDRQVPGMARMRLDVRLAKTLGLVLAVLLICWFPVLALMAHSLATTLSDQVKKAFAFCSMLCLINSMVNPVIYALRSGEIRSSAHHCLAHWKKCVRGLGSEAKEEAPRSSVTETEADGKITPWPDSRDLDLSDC

In assay [1] the target is T1, Cannabinoid receptor 2 (Rattus norvegicus, UniProt Q9QZN9).
T1 sequence (Q9QZN9 whole entry): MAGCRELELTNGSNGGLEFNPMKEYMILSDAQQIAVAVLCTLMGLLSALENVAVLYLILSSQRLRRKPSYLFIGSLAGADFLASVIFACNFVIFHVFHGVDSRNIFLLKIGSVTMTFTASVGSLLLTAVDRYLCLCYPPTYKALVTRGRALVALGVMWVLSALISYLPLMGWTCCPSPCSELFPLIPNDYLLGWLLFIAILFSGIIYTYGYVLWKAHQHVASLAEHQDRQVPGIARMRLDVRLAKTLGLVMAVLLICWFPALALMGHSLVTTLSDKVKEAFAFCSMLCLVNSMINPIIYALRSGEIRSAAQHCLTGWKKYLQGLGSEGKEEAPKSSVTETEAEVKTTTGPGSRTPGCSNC
Put plainly: Binding affinity to rat spleen cannabinoid CB2 receptor. It counts as tissue-based.

In assay [2] the target is Cannabinoid receptor 2 (Homo sapiens, UniProt P34972). Put plainly: Displacement of [3H]CP-55940 from human recombinant cannabinoid CB2 receptor expressed in HEK293 cells. It counts as cell-based. (Loss of bound radioactivity is the signal in a displacement assay; it reports binding, not function.)

As a reminder, the Ki is a dissociation constant, usually derived from enzyme kinetics or from competition with a known ligand. On to `Cc1c(C(=O)NN2CCOCC2)nn(-c2ccc(Cl)cc2Cl)c1-c1ccc(I)cc1`, for which the Ki at Cannabinoid receptor 2 [1] stood at 4.2 µM; on Cannabinoid receptor 2 [2] it was 4.87 µM.
